# The entries are a selection whose mix differs from that of the whole data set. The source made the active and inactive calls.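 Rule for the calls: active = inhibition of at least 50% in every replicate; inconclusive = best replicate reaches 50% inhibition but some replicates fall short; inactive = the rest.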
# Sequences of proteins named here, by UniProt entry; tags and fusion partners are left off.
# UniProt Q5AAJ8, whole entry: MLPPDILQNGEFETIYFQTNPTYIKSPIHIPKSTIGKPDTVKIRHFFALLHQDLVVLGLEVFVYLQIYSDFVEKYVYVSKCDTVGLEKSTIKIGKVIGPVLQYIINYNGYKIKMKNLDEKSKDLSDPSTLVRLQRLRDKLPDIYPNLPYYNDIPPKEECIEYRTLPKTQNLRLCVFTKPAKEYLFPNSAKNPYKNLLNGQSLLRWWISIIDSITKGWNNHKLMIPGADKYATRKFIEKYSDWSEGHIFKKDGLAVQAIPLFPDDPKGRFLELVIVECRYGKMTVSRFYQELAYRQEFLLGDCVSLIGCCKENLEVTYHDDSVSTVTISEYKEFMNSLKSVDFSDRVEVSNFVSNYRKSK
# Molecular target: Histone acetyltransferase RTT109 (Candida albicans (strain SC5314 / ATCC MYA-2876)) (UniProt Q5AAJ8)
# Assay: inhibitors of C. albicans Rtt109/Vps75 HAT, primary screen, biochemical, ThioGlo CoA-SH fluorescence, plate reader (AID 540336)
# Details: purified Rtt109/Vps75, ThioGlo CoA-SH fluorescence, 4 h; at 34.9 µM; stronger effect = higher value
row,SMILES,inhibition
1,CCC(=O)N(c1ccccc1)C1(COC)CCN(CCn2nnn(CC)c2=O)CC1,inactive: 3.04%
2,CCC(=O)N(c1ccccc1)C1(COC)CCN(CCc2cccs2)CC1,inactive: 13.6%
